Results published in patent publication US9616075B2, “Method of treating and preventing brain impairment using Na+-K+-2Cl-cotransporter isoform 1 inhibitors” (University of Rochester, priority 2012, dated 2017).

System: awake mice
Assay: Myoclonic event (ME) frequency on EEG in awake mice
Type: in vivo, mouse
Settings: cortical KCl (12.5 mM) ± bumetanide

SMILES	ME frequency [ME min^−1]
[Cl-].[K+] [KCl]	0.78±0.05
CCCCNc1cc(C(=O)O)cc(S(N)(=O)=O)c1Oc1ccccc1 [bumetanide]	0.13±0.03
